pEC50: −log10 of the molar value.
Tests used:
Type in all cases: cell-based
[1] = target: T1, GIP receptor (Homo sapiens, UniProt P48546); assay: firefly luciferase-based cAMP reporter assay, HEK293 cells, GIP receptor (Example 3)
T1 construct: expressed in transfected cells; host or cells: HEK293
T1 sequence (P48546 22-466): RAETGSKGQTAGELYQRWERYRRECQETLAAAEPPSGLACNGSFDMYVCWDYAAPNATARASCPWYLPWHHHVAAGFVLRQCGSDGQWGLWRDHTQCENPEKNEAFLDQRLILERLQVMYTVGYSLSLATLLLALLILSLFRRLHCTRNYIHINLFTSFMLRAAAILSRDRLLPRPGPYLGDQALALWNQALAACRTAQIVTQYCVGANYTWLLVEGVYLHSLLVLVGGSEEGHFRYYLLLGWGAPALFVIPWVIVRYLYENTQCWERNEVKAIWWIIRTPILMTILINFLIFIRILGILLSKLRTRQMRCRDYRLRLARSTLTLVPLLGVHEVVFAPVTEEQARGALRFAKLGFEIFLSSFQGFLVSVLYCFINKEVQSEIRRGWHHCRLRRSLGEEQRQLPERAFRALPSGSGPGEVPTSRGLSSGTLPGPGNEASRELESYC
Method: It is understood that a lower EC50 indicates higher activity or potency at the receptor.
(§1) The ability of each peptide to induce cAMP was measured in a firefly luciferase-based reporter assay.
(§2) At the end of the incubation, 100 μL of LucLite luminescence substrate reagent (Perkin Elmer, Wellesley, Mass.) were added to each well.
In some instances, the in vitro agonist activity at the GIP receptor was also tested.

Amino acid sequences for entries named in this document (tags omitted). Residues count along the entry.
UniProt P47871, 26-477: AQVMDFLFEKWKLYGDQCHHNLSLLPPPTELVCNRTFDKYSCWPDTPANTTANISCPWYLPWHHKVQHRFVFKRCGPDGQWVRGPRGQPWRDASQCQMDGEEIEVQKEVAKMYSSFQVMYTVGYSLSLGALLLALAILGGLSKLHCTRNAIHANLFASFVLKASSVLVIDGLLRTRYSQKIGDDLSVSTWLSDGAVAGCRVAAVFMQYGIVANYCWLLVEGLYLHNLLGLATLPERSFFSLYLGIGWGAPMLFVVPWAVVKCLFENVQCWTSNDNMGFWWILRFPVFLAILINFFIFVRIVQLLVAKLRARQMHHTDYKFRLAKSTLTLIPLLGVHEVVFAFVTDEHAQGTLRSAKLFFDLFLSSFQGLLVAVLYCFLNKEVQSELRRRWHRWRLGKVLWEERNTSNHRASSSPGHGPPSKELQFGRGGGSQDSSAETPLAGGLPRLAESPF
UniProt P43220, 24-463: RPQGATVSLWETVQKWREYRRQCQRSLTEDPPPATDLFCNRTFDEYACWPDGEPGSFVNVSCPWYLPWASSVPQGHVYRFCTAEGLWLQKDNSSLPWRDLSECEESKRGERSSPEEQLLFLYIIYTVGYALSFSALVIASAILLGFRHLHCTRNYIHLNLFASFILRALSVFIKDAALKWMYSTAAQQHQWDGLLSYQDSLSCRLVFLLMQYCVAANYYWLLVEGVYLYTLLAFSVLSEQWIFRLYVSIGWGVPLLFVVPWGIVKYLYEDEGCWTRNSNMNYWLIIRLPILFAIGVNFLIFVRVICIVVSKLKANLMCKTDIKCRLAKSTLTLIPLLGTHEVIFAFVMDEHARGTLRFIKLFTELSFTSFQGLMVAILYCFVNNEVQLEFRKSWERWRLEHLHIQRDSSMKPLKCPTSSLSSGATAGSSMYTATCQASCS

[2] = target: T2, glucagon receptor (Homo sapiens, UniProt P47871); assay: firefly luciferase-based cAMP reporter assay, HEK293 cells co-transfected with glucagon receptor (Example 3)
T2 construct: expressed in transfected cells; host or cells: HEK293
Method: as §1, §2

[3] = target: human GLP-1R (Homo sapiens, UniProt P43220); assay: firefly luciferase-based cAMP reporter assay, HEK293 cells co-transfected with GLP-1 receptor (Example 3); design: expressed in transfected cells; host or cells: HEK293
Method: as §1, §2

SMILES: CCCCCCCCCCCCCCCC(=O)N[C@@H](CCC(=O)NCCCC[C@H](NC(=O)[C@H](CC(=O)O)NC(=O)[C@H](CO)NC(=O)[C@@H](NC(=O)[C@H](Cc1ccccc1)NC(=O)[C@@H](NC(=O)CNC(=O)[C@H](CCC(N)=O)NC(=O)[C@@H](CO)NC(=O)[C@@H](N)Cc1c[nH]cn1)[C@@H](C)O)[C@@H](C)O)C(=O)N[C@@H](CO)C(=O)N[C@@H](CCCCN)C(=O)N[C@@H](Cc1ccc(O)cc1)C(=O)N[C@@H](CC(C)C)C(=O)N[C@@H](CC(=O)O)C(=O)N[C@@H](CCC(=O)O)C(=O)N[C@@H](CCCNC(=N)N)C(=O)N[C@@H](C)C(=O)N[C@@H](C)C(=O)N[C@@H](CCC(N)=O)C(=O)N[C@@H](CC(=O)O)C(=O)N[C@@H](Cc1ccccc1)C(=O)N[C@H](C(=O)N[C@@H](CCC(N)=O)C(=O)N[C@@H](Cc1c[nH]c2ccccc12)C(=O)N[C@@H](CC(C)C)C(=O)N[C@@H](CC(C)C)C(=O)N[C@@H](CC(=O)O)C(=O)N[C@H](C(=O)N[C@@H](CCCCN)C(=O)N[C@@H](CCC(N)=O)C(=O)O)[C@@H](C)O)C(C)C)C(=O)O [SEQ ID NO: 14]
- pEC50 [1]: 6.01
- pEC50 [2]: 11.52
- pEC50 [3]: 11.52

Reference: US20140221283A1 (Indiana University Research and Technology Corporation, priority 2011, published 2014)
